Test results published in article PMC5047057 (Oral oncology, 2016).

Columns and labels:
[1] = system: platin-resistant, cetuximab-naïve RM HNSCC; conditions: cetuximab monotherapy; cited from earlier work
[2] = system: patients with recurrent/metastatic head and neck squamous cell carcinoma (HNSCC); conditions: in vivo

**Q.** What does the source list for cetuximab?
**A.** Disease control [1]: 46%; Intra-patient dose reductions [2]: did not occur
